{
  "source": "ChEMBL document CHEMBL2440034",
  "about": "“Towards new C6-rigid S-DABO HIV-1 reverse transcriptase inhibitors: synthesis, biological investigation and molecular modeling studies” (Bioorg Med Chem, 2013)",
  "biological_target": "Human immunodeficiency virus type 1 reverse transcriptase (Human immunodeficiency virus 1, UniProt Q72547)",
  "assay": "Inhibition of recombinant wild type HIV-1 reverse transcriptase p66/p51 expressed in Escherichia coli JM109 using poly(rA)/oligo(dT)16 (1:1.2) as template/primer after 40 mins by spectrofluorometric analysis",
  "data": [
    {"smiles": "Cc1cc(C#N)cc(C)c1Oc1nc(Nc2ccc(C#N)cc2)nc(N)c1Br", "note": "[ETRAVIRINE]", "values": [
      {"measurement": "IC50", "result": 17, "unit": "nM"}
    ]}
  ]
}
